Publication PMC12467246, “Characterization of the Anticholinesterase and Antioxidant Properties of Phytochemicals from Moringa oleifera as a Potential Treatment for Alzheimer’s Disease” (Biomedicines, 2025)

Amino acid sequences for entries named in this document (tags omitted). Residues count along the entry.
UniProt P06276, 29-602: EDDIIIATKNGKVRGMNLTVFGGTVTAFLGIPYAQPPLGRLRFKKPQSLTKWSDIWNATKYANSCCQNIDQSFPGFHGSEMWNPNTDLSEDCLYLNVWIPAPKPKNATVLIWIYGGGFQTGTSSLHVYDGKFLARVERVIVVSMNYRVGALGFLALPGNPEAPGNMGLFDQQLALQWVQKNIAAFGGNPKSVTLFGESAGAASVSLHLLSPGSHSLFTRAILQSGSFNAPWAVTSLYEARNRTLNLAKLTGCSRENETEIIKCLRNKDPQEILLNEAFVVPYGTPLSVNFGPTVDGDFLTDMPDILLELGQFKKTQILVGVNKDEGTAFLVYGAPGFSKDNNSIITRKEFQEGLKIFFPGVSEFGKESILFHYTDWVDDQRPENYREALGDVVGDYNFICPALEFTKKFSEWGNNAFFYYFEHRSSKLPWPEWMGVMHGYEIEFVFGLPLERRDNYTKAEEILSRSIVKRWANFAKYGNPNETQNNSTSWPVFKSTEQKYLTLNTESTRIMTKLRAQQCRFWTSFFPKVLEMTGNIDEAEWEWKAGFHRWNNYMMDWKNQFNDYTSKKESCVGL

Biological target: T1, human butyrylcholinesterase (hBuChE) (Homo sapiens, UniProt P06276)
T1 construct: purchased Sigma B4186
Type: biochemical
Conditions: mean ± SEM, n = 3, actual or estimated IC50, 20 min pre-incubation; read-out: Enzyme IC50 hBuChE

CCN(C)C(=O)Oc1cccc([C@H](C)N(C)C)c1 [Rivastigmine, reference compound]
IC50: 3.6 ± 0.3 µM
